The source of these data is US9656959B2, “Substituted pyridines as sodium channel blockers” (Purdue Pharma L.P., priority 2010, dated 2017).

Protein sequences, listed by entry. Tags and fused reporters are not part of them. Chains listed by the source or under a name are the forms on record and can include a tag or linker.
UniProt Q15858, with tags, fused parts or gaps limits assumed: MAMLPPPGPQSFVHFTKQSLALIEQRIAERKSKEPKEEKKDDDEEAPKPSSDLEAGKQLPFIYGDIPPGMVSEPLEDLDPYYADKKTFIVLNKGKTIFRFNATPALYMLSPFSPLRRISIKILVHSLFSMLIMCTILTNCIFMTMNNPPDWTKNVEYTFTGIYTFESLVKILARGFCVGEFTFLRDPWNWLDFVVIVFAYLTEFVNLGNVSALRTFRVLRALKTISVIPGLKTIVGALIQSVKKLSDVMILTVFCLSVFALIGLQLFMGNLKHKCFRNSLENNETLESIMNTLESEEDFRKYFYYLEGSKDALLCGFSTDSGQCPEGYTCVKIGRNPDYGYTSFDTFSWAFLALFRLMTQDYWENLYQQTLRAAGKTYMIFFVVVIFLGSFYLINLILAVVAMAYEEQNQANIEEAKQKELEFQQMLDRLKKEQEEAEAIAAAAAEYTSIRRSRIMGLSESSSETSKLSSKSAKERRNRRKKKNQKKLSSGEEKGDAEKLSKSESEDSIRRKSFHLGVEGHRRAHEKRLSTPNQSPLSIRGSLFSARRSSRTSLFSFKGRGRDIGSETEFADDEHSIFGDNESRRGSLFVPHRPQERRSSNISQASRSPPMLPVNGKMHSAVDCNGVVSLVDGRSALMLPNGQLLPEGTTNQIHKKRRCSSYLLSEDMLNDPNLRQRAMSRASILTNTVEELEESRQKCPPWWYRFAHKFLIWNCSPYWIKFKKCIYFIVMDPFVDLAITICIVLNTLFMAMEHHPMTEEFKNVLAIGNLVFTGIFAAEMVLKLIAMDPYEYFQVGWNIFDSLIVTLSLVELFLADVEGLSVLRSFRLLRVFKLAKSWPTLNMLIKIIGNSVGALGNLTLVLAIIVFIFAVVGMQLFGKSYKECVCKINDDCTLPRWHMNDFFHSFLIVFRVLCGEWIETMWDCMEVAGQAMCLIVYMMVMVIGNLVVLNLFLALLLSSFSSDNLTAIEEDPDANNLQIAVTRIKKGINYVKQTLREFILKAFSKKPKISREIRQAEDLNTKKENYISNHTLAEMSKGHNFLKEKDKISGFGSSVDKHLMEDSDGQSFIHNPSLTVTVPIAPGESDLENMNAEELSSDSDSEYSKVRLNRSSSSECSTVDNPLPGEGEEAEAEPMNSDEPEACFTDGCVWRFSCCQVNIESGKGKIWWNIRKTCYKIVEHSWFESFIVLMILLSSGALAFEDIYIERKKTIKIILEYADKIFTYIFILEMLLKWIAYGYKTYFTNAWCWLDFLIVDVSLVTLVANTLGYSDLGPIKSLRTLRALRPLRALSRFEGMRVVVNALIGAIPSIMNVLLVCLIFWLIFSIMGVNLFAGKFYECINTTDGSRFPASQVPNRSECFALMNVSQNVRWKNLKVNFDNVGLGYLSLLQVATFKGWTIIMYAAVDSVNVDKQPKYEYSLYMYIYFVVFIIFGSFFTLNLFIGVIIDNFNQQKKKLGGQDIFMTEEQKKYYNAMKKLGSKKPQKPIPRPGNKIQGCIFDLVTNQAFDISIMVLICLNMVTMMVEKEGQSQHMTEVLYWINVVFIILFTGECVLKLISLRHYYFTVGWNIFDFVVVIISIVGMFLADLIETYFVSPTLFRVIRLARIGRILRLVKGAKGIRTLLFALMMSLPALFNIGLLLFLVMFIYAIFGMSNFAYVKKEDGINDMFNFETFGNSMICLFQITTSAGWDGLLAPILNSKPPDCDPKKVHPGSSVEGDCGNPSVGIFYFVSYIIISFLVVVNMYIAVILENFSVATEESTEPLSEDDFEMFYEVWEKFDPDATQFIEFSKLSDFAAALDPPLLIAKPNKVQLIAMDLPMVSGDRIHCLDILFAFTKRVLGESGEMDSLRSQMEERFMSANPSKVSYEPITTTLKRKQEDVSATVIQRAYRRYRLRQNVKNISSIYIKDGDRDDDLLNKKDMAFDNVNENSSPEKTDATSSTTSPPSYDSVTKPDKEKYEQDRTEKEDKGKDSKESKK

The assay concerns the target human Nav1.7 (Homo sapiens (Human), UniProt Q15858). The assay is described as follows: FLIPR or FLIPR TETRA sodium dye assay with KCl and test article pre-incubation. The assay is classed as cell-based. The conditions noted are these: read-out: Nav1.7 Activity (μM) FLIPR assay IC50 (μM) ± SEM.

Take `N#Cc1ccc(Oc2ccc(-c3cccc(NC(=O)C(O)CO)n3)cc2)cc1C(F)(F)F` (stereo not shown) [Compound 75, N-(6-(4-(4-cyano-3-(trifluoromethyl)phenoxy)phenyl)pyridin-2-yl)-2,3-dihydroxypropanamide]: the IC50 is 0.609 ± 0.027 µM.

One may read the IC50 as the concentration needed to halve the response being measured.
